Earlier results, collected in patent US6846837B2, “Topical administration of basic antifungal compositions to treat fungal infections of the nails” (priority 2002, dated 2005).

Conditions: 0.1 N

OCCN(CCO)CCO
pH of Aqueous Solution (concentration): 10.5 (0.1 N)

Some compounds may have been tested in ways that are not shown here.
